Drawing on PubChem BioAssay AID612 (The Scripps Research Institute Molecular Screening Center, 2007), this text covers inhibition for 17 compounds.

Protein sequences, listed by entry. Tags and fused reporters are not part of them.
UniProt P08908, whole entry: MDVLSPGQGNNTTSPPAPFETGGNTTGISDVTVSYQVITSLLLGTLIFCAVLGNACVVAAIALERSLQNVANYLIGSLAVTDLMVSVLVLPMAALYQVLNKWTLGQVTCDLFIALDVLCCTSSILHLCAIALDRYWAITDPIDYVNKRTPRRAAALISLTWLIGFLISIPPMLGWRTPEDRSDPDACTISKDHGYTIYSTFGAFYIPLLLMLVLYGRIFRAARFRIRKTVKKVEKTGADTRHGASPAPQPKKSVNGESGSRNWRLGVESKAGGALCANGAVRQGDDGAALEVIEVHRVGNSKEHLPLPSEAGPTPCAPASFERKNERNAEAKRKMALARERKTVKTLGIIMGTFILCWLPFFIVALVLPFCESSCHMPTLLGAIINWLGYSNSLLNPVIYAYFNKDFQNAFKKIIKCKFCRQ

The entries are a selection whose mix differs from that of the whole data set. The source made the active and inactive calls.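 The calls were made as follows: active = inhibition above the mean of all tested compounds plus 3 SD (cut at about 43% in these data); inactive = the rest.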

The target of this assay is 5-hydroxytryptamine receptor 1A (Homo sapiens) (UniProt P08908). In words: human 5-HT1a receptor antagonists, primary screen, cell-based, CHO, Ga15 NFAT-bla reporter (AID 612).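 Also: receptor stimulated by 5-CT agonist at 100 nM near EC80; beta-lactamase reporter measured by ratiometric fluorescence of a cleavable substrate.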 The settings on record: CHO 5-HT1a Ga15 NFAT-bla reporter, antagonist mode; at 10 µM; active compounds read high.
The term inhibition denotes the relative decrease from the control value, in per cent. Turning to `CP(=S)(Nn1cnnc1)Oc1ccccc1` (configuration not stated), the inhibition was inactive: 3%. Consider `CP(=O)(NC(=O)Nc1ccccc1)Oc1ccccc1` (configuration not stated), for which the inhibition was inactive: 5.4%. Next, `CCOP(C)(=S)SCC(=O)NC(C)C(=O)O` (configuration not stated): inactive: 10.3%. In the case of `Cc1ccc(NP(C)(=O)Oc2ccccc2)c(C)c1` (configuration not stated), the inhibition was inactive: 4.1%. Turning to `COc1ccccc1OP(C)(=O)Nc1ccc(C)cc1` (configuration not stated), the inhibition was inactive: 5.1%. Consider `Cc1ccc(C)c(NP(C)(=O)Oc2ccccc2)c1` (configuration not stated), for which the inhibition is inactive: -1.8%.

For `Cc1nc2ccc3ccccc3c2s1.O=[N+]([O-])c1cc([N+](=O)[O-])c(O)c([N+](=O)[O-])c1`, the inhibition was inactive: -10%. Turning to `CN(C)CCOC(=O)C(O)(c1ccccc1)C1CCCCC1` (configuration not stated), the inhibition is inactive: 9.3%.

As to `CCOP(C)(=S)SCC(=O)NC(C)(CC)C(=O)O` (configuration not stated), the inhibition is inactive: 4.1%.

Consider `Cc1ccccc1NP(C)(=O)Nc1ccccc1C`, for which the inhibition is inactive: 2.7%.

As for `CP(=O)(Nc1ccc2c(c1)OCCO2)Oc1ccccc1` (configuration not stated), the inhibition is inactive: 4.3%.

`CP(=O)(Nc1ccccc1F)Oc1ccccc1` (configuration not stated): the inhibition is inactive: 0.9%. For `COc1ccccc1OP(C)(=O)Nc1ccc(C)c(C)c1` (configuration not stated) the value was inactive: -7.1%; for `Cc1nc2ccc3ccccc3c2o1.O=[N+]([O-])c1cc([N+](=O)[O-])c(O)c([N+](=O)[O-])c1`, inactive: 10.1%; for `CP(=O)(Nc1ccccn1)Oc1ccccc1` (configuration not stated), inactive: 6.1%. Consider `COc1ccccc1OP(C)(=O)Nc1c(C)n(C)n(-c2ccccc2)c1=O` (configuration not stated), for which the inhibition was inactive: -13.9%.

Turning to `CP(=O)(Oc1ccccc1)N1CCOC1=O` (configuration not stated), the inhibition is inactive: 7.1%.
